Biological target: MAPKAPK2 (Homo sapiens, UniProt P49137)
Assay: biochemical

The chains behind the UniProt entries cited, without tags or fusion partners.
UniProt P49137, whole entry, species assumed: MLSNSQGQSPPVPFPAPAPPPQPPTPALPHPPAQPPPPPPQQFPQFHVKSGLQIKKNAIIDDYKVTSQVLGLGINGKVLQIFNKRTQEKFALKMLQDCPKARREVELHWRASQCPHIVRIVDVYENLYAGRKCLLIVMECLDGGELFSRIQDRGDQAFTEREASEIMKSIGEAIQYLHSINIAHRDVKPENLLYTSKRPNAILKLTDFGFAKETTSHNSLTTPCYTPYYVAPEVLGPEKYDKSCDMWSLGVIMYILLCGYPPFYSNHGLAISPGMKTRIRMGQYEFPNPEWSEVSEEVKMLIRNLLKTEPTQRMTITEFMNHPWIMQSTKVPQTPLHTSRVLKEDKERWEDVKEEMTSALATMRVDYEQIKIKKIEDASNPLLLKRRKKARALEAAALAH

IC50: ≥ 200 µM
SMILES: COc1ccc2c(c1)Cc1c(nc(N)c(C#N)c1N)S2(=O)=O [No. 94, 7,8-dimethoxy-2,4-bis[(2-methoxyethyl)amino]-5H-chromeno[2,3-b]pyridine-3-carbonitrile]

Source: patent US20040127511A1 (Pharmacia Corporation, priority 2002, published 2004)
